Literature values in PMC3807576 (ACS medicinal chemistry letters, 2013).

Sequences of proteins named here, by UniProt entry; tags and fusion partners are left off. Residues count along the entry.
UniProt P29317, 24-976: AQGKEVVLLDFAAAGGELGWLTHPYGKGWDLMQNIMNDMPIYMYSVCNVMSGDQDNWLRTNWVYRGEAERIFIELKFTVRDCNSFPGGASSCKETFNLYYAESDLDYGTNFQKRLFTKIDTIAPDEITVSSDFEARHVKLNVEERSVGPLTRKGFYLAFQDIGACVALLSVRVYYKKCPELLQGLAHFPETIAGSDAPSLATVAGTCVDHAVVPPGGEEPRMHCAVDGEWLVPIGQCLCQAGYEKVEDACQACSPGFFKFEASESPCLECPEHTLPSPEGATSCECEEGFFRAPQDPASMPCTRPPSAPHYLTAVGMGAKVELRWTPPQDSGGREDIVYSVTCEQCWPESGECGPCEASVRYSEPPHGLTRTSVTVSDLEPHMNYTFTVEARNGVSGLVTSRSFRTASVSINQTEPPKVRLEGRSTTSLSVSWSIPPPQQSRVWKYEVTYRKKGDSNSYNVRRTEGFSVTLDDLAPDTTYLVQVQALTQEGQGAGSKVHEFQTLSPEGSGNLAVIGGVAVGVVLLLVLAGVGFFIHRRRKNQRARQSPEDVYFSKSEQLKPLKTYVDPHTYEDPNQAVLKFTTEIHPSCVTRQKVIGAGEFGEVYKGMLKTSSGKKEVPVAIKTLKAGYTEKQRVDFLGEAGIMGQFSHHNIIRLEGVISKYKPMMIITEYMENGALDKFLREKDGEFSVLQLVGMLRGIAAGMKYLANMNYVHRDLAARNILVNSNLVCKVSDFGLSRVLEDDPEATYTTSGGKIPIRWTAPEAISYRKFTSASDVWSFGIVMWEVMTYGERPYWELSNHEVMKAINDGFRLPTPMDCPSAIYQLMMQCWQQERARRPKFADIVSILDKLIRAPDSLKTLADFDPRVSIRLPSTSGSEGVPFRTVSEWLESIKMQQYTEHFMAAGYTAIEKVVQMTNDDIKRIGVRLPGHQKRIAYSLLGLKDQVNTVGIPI

Tests used:
[1] = test system: Erk1/2 MAP kinases and Akt; settings: PC3 prostate cancer cells, 50 μM
[2] = molecular target: EphA2 (Homo sapiens, UniProt P29317)

Sequence	downstream inhibition of Erk1/2 MAP kinases and Akt [1]	selectivity of binding among Eph receptors [2]	binding affinity ([2]; depending on the addition of linkers, biotin and other groups)
SWLAYPGAVSYR	downstream inhibition of Erk1/2 MAP kinases and Akt	–	–
YSAYPDSVPMMS	–	bind in a selective manner to EphA2 and not other Eph receptors	low micromolar to submicromolar
